In patent US12629398B2, “Method of alleviating obsessive compulsive disorder symptoms by use of a multi-strain probiotic formulation” (Unique Biotech Limited, priority 2024, dated 2026):

Columns and labels:
[1] = system: quinpirole-injected rats; assay: Elevated plus maze (EPM) test, anxiety-like behavior, quinpirole OCD model; parameters: species or system Wistar rats; details: rat, in vivo
Excerpt: (§1) Experimental design was as given in Ref 12, incorporated herein in its entirety. The rats were randomly distributed into 5 different groups, with 6-8 rats per group (FIG. 1). Group 1, referred to as the “Vehicle” group, received the vehicle for a duration of 8 weeks. Group 2, denoted as the “Probiotic” group, received the peroral (PO) multistrain probiotic at a dose of 1× 10^10 CFU per rat for 8 weeks.

[2] = system: quinpirole-injected rats; assay: Marble burying test, quinpirole OCD model; parameters: species or system Wistar rats; details: rat, in vivo
Excerpt: as §1

[3] = system: quinpirole-injected rats; assay: Self-grooming test, quinpirole OCD model; parameters: species or system Wistar rats; details: rat, in vivo
Excerpt: as §1

[4] = system: quinpirole-injected rats; assay: Hole board test, quinpirole OCD model; parameters: species or system Wistar rats; details: rat, in vivo
Excerpt: as §1

[5] = system: nNOS; assay: Western blot analysis of nNOS in the frontal cortex; details: rat, in vivo; hydrochloride
Excerpt: as §1
Radioimmunoprecipitation Assay (RIPA) buffer was used to homogenize the frontal cortex part of the rat brain and then resolved using sodium dodecyl sulfate-polyacrylamide gel electrophoresis (SDS-PAGE). The proteins were then transferred to a nitrocellulose membrane, blocked with 5% bovine serum albumin, and incubated with the primary antibody anti-NOS1 (sc-5302, 1:1000 dilution) overnight at 4° C., followed by incubation with horseradish peroxidase-conjugate secondary antibody at RT. The required proteins were then detected by using an ECL solution.

[6] = system: TNF-α; assay: Real-time PCR of cytokine mRNA in the amygdala: TNF-α; details: rat, in vivo
Protocol: as §1
(§2) RT-PCR was performed to analyze the impact of a multistrain probiotic on cytokines mRNA expression (Ref 20, Rahman et al). Briefly, NucleoSpin® RNA isolation kit (#740955.50, DSS Takara Bio India Private Ltd) was used to extract RNA from the rat brain's amygdala. PrimeScript™ 1st strand cDNA synthesis kit (#6110A, DSS Takara Bio India Private Ltd) was used to process these RNA samples to cDNA. The 10 μL reaction mixture was prepared by mixing 5 μL of SYBR Green, 2 μL of the PCR primer (1 μL reverse+1 μL forward) (GCC Biotech, India, Private Ltd.). 1 μL of diluted cDNA template and 2 μL nuclease-free water. For each PCR test, the threshold cycle numbers were averaged across all samples. Using Δ/Δ Ct technique, the relative mRNA expression was calculated. The primers were designed (Table 6) using the software tools NCBI BLAST.

[7] = system: IL-6; assay: Real-time PCR of cytokine mRNA in the amygdala: IL-6; details: rat, in vivo
Protocol: as §1, §2

[8] = system: SCFAs; assay: Short-chain fatty acids (SCFAs) in fecal samples by GC-FID; details: rat, in vivo
Excerpt: as §1
The gas chromatography-flame ionization detection (GC-FID) was used to evaluate the effect of OCD on bacterial metabolites as described earlier in our publications (Ref 22, Rahman et al & Ref 23, Satti et al). Briefly, supernatant acidified with HCL (5 M) and then extracted in diethyl ether to estimate the SCFAs. The acetate, propionate, and butyrate levels were estimated by loading the known amount of each SCFA.

[9] = system: colon; assay: Colon histopathology (H&E and alcian blue-PAS staining); details: rat, in vivo
Protocol: as §1
To examine the gut permeability, H&E and alcian-blue PAS staining were performed. The method is already described in our publications (Ref 20, 21, and 22), incorporated herein in its entirety. Briefly, sections were processed for deparaffinization with xylene, rehydration with alcohol, and then stained with H&E and alcian blue-PAS agents. Finally, slides were mounted with (DPX) followed by observations under a microscope (Leica-ICC50 W).

[10] = system: intestinal microbiota; assay: 16S rRNA gene sequencing of fecal samples, intestinal microbiota; details: rat, in vivo
Excerpt: as §1

CCCN1CCC[C@@H]2Cc3n[nH]cc3C[C@H]21 [Quinpirole, (−)-Quinpirole hydrochloride]
% Entries into open arms [1]: fewer entries | % Time spent in the open arms [1]: spent less time | number of marbles buried (increase by quinpirole) [2]: considerably more | self-grooming activity (number of grooming episodes, score) [3]: higher grooming activity | head dipping activity [4]: nonsignificant decrease | expression of nNOS [5]: significantly increased levels; also recorded: increased expression | mRNA expression of TNF-α [6]: statistically insignificant | mRNA expression of IL-6 [7]: significant increase | Acetate (μg/mL) (Mean ± S.E.M.) [8]: 1.94 ± 0.14 µg/mL | Butyrate (μg/mL) (Mean ± S.E.M.) [8]: 1.70 ± 0.73 µg/mL | Propionate (μg/mL) (Mean ± S.E.M.) [8]: 1.25 ± 0.29 µg/mL | acetate level [8]: lower levels | number of mature goblet cells [9]: reduced | villus height/crypt depth ratio [9]: reduced | abundance of Lactobacillus reuteri [10]: reduced abundance | abundance of Lactobacillus vaginalis [10]: reduced abundance | levels of Allobaculum [10]: increased | levels of Bifidobacterium [10]: increased | levels of Prevotella genus [10]: increased | relative abundance of Bifidobacterium animalis [10]: increased relative abundance | relative abundance of Lactobacillus [10]: decreased | relative abundance of Ruminococcus flavefaciens [10]: increased relative abundance

Entries after “also recorded” stand apart in the source; their conditions may differ. Counter-ions that a name gives are not always drawn.
